Results published in US20120142766A1, “SUBSTITUTED 1,3-DIOXANES AND THEIR USES” (EVOLVA SA, priority 2007, published 2012).

Target: T1, Thromboxane synthase (Homo sapiens, UniProt P24557)
T1 construct: Human Platelet Thromboxane Synthase Assay; from tissue; host or cells: human platelets
T1 sequence (P24557 1-533): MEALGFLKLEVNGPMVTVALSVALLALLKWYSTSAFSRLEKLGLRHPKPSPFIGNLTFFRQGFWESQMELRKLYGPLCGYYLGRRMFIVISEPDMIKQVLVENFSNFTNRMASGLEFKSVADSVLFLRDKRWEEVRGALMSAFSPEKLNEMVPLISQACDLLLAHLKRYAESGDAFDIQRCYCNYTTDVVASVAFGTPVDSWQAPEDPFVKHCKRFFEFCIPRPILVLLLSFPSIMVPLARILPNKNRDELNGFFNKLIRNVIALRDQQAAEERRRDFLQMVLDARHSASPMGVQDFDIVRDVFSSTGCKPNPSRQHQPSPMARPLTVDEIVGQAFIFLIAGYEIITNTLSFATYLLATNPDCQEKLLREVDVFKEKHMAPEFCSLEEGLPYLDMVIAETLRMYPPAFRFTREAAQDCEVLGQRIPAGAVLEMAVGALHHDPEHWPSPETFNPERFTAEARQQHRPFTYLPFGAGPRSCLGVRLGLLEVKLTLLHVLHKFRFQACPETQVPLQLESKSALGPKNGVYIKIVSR
Test: Human platelet thromboxane synthase assay
Assay type: biochemical
Procedure: The compounds were tested for thromboxane synthase inhibition essentially as described by Borsch-Haubold A G, Pasquet S, Watson S P. (1998) Direct inhibition of cyclooxygenase-1 and -2 by the kinase inhibitors SB 203580 and PD 98059. […] 1. Imidazole derivatives. J Med. Chem. (10):1139-48 according to the following:
Pre-incubation time, temp: 15 minutes at 25° C. Incubation time, temp: 3 minutes at 25° C.
Incubation Buffer: 10 mM Tris-HCl, pH 7.4
Quantification Method: EIA quantification of TxB2

| Compound | IC50 |
| --- | --- |
| O=C(O)CC/C=C\C[C@H]1CO[C@@H](c2ccccc2Cl)O[C@H]1c1ccccc1O [Compound B, (Z)-6-((2R,4R,5S)-2-(2-chlorophenyl)-4-(2-hydroxyphenyl)-1,3-dioxan-5-yl)hex-4-enoic acid] | 12.1 µM |
| O=C(O)CC/C=C\C[C@@H]1CO[C@H](c2ccccc2Cl)O[C@@H]1c1ccccc1O [Compound C, (Z)-6-((2S,4S,5R)-2-(2-chlorophenyl)-4-(2-hydroxyphenyl)-1,3-dioxan-5-yl)hex-4-enoic acid] | 7.02 µM |
